Assay results from ChEMBL document CHEMBL2218924, “A broad activity screen in support of a chemogenomic map for kinase signalling research and drug discovery” (Biochem J, 2013).
For some of these results: The strong results were mostly taken out for another list; the other results follow. Only a part is listed here, and it is no random draw.

The chains behind the UniProt entries cited, without tags or fusion partners. Where a name states a change or a piece, a line headed by the entry shows the natural chain unless it says otherwise.
UniProt P27361, whole entry: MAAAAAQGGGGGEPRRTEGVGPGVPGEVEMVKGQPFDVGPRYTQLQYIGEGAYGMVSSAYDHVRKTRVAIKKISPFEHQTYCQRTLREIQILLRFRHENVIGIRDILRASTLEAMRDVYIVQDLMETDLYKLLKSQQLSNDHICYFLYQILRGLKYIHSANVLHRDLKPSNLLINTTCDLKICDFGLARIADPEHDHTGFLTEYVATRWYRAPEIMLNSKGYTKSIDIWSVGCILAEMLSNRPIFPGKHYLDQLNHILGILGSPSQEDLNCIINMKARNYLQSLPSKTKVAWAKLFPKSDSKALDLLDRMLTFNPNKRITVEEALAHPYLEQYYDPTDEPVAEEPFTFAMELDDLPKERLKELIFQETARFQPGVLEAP
UniProt P24864, whole entry, looked up: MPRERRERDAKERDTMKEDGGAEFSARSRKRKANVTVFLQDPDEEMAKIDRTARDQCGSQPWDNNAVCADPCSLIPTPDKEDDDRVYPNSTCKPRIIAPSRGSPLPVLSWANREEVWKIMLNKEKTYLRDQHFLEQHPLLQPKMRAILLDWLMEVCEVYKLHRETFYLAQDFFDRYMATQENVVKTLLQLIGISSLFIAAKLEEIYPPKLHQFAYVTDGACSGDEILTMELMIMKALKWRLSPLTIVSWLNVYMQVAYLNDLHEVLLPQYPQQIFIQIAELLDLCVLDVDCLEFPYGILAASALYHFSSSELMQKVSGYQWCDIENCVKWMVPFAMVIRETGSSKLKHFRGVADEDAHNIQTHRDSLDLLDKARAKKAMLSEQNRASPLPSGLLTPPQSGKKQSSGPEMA
UniProt O96020, whole entry, looked up: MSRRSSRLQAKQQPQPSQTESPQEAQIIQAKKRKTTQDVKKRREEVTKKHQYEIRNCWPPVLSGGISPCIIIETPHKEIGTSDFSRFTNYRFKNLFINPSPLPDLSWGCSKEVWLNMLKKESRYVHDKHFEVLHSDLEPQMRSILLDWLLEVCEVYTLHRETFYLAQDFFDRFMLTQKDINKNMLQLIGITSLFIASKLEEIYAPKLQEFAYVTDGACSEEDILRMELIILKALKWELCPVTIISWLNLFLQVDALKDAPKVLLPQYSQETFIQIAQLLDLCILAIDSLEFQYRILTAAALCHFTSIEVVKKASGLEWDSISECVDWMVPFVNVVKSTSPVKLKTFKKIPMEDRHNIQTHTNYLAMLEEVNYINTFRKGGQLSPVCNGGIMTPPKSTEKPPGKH
UniProt Q14289, whole entry, looked up: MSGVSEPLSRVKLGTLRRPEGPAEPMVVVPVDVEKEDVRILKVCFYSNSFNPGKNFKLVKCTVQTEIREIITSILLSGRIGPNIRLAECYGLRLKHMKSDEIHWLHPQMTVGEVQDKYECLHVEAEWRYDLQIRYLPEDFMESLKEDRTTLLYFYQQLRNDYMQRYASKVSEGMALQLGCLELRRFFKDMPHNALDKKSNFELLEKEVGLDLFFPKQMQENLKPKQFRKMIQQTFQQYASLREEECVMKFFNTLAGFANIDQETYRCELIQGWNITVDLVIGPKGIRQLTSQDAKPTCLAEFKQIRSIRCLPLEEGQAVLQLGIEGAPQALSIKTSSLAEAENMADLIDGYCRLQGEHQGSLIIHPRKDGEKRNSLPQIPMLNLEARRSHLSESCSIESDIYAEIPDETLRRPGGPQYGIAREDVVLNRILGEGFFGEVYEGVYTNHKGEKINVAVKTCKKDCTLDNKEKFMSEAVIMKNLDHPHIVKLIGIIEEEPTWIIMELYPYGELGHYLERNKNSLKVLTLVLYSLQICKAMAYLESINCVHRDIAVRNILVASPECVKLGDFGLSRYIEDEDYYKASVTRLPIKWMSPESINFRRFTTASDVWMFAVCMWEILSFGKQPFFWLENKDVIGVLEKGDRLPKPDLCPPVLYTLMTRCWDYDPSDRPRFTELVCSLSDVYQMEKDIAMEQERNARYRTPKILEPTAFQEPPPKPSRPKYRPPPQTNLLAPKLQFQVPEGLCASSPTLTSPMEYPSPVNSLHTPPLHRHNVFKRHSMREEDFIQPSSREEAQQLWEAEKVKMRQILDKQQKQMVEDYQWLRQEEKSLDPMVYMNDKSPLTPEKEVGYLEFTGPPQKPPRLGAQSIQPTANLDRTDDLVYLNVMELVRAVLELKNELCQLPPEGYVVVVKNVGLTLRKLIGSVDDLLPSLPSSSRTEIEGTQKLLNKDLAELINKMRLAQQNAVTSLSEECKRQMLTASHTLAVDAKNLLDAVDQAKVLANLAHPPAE
UniProt P00519, whole entry: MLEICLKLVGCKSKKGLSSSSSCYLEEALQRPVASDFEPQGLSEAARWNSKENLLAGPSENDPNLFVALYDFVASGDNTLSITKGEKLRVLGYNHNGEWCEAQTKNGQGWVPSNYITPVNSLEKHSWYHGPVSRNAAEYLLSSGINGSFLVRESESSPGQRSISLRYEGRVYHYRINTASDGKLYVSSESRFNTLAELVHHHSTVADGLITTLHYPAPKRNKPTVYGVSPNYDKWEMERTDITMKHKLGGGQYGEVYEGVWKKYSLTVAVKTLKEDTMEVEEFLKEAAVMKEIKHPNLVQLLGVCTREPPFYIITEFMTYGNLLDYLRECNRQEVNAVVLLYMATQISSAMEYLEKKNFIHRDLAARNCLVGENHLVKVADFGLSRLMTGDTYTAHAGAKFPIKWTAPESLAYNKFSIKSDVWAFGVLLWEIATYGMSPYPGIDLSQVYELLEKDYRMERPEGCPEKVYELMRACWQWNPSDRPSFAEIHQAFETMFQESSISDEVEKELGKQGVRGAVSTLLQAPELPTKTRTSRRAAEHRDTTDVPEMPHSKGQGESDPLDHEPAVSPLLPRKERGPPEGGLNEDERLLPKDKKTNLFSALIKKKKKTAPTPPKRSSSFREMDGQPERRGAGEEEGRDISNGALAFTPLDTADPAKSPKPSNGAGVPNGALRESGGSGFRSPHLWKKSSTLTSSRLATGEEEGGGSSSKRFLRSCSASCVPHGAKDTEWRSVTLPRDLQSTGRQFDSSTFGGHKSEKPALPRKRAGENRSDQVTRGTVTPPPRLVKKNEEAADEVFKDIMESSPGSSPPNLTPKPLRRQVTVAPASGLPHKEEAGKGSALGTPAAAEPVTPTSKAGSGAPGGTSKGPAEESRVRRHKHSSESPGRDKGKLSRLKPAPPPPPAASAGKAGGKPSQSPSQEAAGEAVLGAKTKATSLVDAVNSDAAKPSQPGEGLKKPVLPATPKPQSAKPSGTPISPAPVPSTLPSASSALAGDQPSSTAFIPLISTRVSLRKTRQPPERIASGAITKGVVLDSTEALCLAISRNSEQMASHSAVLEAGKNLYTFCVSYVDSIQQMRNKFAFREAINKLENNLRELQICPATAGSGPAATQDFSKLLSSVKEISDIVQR
UniProt Q13555: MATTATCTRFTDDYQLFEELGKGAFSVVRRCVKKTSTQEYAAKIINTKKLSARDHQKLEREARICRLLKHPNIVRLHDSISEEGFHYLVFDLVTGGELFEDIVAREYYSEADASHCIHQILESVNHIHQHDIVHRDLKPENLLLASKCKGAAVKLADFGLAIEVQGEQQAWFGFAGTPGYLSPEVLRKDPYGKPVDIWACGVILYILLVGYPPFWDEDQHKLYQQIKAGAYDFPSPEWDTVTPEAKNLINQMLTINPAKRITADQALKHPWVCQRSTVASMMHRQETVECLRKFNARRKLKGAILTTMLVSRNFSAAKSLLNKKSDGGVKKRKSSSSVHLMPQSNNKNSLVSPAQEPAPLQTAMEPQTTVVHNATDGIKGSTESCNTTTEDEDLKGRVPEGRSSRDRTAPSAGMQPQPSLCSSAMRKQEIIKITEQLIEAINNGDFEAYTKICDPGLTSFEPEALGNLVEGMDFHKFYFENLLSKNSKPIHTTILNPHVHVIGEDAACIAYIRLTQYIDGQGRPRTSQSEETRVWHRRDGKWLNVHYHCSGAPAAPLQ
UniProt Q13043: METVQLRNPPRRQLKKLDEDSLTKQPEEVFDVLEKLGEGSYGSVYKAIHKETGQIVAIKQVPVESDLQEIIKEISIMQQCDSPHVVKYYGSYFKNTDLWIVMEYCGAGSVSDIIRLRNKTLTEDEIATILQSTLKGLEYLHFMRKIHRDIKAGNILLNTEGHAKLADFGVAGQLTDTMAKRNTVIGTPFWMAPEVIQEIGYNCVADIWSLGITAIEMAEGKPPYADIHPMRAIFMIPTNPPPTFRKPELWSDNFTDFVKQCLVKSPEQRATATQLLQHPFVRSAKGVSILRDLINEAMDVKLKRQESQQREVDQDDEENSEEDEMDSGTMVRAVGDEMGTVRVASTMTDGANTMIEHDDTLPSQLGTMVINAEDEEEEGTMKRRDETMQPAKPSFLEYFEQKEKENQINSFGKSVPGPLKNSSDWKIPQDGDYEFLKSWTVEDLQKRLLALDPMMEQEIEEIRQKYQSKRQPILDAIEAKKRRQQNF
UniProt Q06187: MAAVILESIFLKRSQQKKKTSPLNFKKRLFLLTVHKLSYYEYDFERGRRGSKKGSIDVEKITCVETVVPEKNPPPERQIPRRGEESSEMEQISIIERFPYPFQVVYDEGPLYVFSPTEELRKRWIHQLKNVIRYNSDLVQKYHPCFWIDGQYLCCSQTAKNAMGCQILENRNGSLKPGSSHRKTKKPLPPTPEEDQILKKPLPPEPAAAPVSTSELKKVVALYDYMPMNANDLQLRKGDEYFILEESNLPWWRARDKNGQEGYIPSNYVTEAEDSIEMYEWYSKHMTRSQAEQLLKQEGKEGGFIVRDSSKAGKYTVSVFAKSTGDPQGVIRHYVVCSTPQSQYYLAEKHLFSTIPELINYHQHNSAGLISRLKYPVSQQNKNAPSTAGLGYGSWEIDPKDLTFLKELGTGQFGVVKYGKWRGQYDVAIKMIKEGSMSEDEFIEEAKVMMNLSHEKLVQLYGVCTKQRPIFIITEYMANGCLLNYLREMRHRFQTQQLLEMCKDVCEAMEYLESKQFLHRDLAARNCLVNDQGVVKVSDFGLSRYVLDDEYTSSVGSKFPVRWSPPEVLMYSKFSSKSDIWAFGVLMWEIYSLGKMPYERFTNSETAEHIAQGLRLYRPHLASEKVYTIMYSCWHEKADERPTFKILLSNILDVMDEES
UniProt Q9NYY3: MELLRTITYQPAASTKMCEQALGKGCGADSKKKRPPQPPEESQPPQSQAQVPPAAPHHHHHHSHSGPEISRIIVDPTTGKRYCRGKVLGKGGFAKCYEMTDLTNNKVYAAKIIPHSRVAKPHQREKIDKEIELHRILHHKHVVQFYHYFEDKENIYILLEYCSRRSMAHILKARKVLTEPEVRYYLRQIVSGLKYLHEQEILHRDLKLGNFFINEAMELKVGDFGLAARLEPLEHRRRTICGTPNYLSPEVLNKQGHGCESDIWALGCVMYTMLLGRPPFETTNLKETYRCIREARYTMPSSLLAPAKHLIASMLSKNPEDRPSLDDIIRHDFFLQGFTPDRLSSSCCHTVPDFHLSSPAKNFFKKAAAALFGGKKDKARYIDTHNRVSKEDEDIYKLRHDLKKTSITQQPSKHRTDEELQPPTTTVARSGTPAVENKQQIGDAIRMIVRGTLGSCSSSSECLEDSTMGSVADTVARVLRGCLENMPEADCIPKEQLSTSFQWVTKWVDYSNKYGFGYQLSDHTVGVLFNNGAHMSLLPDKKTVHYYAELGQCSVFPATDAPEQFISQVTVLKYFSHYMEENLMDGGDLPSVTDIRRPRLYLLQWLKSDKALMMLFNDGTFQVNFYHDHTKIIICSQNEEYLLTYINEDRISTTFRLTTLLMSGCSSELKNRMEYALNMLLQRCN

Tests used:
[1] = target: T1, Ephrin type-A receptor 8 (Homo sapiens) (UniProt P29322); settings: at 10 µM
T1 sequence (whole entry): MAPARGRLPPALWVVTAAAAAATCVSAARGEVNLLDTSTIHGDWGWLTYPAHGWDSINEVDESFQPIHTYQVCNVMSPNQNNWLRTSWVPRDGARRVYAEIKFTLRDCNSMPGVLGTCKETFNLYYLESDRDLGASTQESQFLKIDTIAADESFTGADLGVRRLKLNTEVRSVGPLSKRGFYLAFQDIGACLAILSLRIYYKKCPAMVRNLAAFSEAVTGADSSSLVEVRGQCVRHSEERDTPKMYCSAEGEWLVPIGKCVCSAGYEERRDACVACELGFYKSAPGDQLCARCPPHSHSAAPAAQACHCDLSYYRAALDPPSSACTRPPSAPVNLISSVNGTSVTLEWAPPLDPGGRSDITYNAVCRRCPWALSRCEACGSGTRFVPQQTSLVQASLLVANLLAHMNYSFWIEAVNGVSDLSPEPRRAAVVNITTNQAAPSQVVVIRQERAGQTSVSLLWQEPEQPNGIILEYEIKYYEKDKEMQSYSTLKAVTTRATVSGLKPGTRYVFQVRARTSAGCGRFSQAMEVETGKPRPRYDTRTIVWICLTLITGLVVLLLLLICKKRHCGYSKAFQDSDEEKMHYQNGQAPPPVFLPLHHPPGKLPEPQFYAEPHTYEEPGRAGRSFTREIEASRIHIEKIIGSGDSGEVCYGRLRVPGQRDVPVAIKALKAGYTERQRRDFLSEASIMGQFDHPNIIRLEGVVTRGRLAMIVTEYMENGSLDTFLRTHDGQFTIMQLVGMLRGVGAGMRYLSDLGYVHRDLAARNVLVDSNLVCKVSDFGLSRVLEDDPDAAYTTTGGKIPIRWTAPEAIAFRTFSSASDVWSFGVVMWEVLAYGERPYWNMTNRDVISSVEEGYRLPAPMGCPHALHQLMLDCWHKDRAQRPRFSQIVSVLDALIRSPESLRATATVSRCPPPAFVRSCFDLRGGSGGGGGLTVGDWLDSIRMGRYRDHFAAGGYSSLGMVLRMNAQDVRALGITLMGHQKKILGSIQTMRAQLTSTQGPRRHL

[2] = target: T2, Serine/threonine-protein kinase NLK (Homo sapiens) (UniProt Q9UBE8); settings: at 1 µM
T2 sequence (whole entry): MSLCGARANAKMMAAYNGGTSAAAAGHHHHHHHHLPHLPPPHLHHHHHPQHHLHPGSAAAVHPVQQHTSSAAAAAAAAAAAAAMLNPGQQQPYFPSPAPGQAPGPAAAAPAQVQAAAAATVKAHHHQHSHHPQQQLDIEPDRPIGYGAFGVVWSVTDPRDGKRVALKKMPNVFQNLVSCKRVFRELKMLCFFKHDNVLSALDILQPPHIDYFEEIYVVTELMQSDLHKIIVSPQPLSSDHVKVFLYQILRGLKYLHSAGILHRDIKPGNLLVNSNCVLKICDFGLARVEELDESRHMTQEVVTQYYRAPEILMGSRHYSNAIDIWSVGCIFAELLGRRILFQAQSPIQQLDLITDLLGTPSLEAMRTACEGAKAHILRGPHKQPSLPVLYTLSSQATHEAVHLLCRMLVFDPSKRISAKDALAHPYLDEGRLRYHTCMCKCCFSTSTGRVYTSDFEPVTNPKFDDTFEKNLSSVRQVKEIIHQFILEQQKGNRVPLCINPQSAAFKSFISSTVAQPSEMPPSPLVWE

[3] = target: T3, Discoidin domain-containing receptor 2 (Homo sapiens) (UniProt Q16832); settings: at 1 µM
T3 sequence (whole entry): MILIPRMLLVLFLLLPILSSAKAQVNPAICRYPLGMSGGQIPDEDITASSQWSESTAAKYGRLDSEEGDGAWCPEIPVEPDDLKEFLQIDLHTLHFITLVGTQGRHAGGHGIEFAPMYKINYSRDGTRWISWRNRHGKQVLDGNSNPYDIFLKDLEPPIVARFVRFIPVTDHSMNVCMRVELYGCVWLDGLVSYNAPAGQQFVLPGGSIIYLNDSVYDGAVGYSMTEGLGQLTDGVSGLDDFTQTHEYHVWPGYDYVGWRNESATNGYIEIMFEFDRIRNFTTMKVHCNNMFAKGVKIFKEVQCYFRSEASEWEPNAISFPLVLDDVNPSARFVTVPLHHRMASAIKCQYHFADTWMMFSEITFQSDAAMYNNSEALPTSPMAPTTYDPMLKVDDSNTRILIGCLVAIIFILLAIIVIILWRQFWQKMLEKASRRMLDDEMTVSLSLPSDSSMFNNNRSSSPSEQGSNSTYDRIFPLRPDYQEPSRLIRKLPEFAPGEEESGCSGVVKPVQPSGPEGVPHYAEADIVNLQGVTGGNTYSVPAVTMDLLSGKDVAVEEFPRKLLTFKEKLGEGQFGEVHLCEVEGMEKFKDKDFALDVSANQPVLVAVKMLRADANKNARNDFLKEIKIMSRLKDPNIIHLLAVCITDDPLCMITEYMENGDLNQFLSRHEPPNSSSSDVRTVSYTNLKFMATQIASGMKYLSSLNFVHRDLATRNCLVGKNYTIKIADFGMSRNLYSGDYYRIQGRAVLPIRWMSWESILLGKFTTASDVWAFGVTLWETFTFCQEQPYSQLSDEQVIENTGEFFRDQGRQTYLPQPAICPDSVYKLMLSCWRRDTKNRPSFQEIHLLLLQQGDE

[4] = target: Mitogen-activated protein kinase 3 (Homo sapiens) (UniProt P27361); settings: at 10 µM
[5] = target: Cyclin-dependent kinase 2/cyclin E (Homo sapiens) (UniProt P24864+P24941+O96020); settings: at 1 µM
[6] = target: Protein-tyrosine kinase 2-beta (Homo sapiens) (UniProt Q14289); settings: at 10 µM
[7] = target: Tyrosine-protein kinase ABL1 (Homo sapiens) (UniProt P00519); settings: at 10 µM
[8] = target: T4, Activin receptor type-1B (Homo sapiens) (UniProt P36896); settings: at 1 µM
T4 sequence (whole entry): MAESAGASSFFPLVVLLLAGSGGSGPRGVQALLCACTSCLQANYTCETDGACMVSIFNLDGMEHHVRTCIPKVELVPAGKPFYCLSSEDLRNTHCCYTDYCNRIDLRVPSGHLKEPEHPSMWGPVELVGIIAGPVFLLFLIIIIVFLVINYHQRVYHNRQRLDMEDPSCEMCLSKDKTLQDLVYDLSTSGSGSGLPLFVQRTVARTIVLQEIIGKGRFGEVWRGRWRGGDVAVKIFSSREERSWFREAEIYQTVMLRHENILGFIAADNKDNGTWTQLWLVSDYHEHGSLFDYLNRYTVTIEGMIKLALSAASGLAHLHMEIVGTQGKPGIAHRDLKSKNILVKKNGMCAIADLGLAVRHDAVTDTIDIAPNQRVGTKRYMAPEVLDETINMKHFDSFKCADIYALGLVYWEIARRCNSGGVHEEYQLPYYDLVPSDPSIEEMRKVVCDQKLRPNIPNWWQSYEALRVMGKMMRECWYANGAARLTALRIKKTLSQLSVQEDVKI

[9] = target: Calcium/calmodulin-dependent protein kinase type II subunit gamma (Homo sapiens) (UniProt Q13555); settings: at 1 µM
[10] = target: Death-associated protein kinase 2 (Homo sapiens) (UniProt Q9UIK4); settings: at 10 µM
[11] = target: Serine/threonine-protein kinase 4 (Homo sapiens) (UniProt Q13043); settings: at 1 µM
[12] = target: T5, Serine/threonine-protein kinase Nek6 (Homo sapiens) (UniProt Q9HC98); settings: at 10 µM
T5 sequence (whole entry): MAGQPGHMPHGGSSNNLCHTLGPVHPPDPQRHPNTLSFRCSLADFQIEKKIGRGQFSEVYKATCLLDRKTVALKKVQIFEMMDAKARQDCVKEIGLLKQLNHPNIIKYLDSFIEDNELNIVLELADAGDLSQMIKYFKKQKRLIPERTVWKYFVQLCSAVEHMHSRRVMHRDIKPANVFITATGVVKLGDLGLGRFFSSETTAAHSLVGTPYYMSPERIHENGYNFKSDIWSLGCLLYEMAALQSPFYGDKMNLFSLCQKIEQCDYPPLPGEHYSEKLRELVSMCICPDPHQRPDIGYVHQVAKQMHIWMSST

[13] = target: Protein kinase C gamma type (Homo sapiens) (UniProt P05129); settings: at 10 µM
[14] = target: Cyclin-dependent kinase 2/cyclin A (Homo sapiens) (UniProt P24941+P20248+P78396); settings: at 1 µM
[15] = target: Death-associated protein kinase 2 (Homo sapiens) (UniProt Q9UIK4); settings: at 1 µM
[16] = target: Tyrosine-protein kinase BTK (Homo sapiens) (UniProt Q06187); settings: at 1 µM
[17] = target: Protein kinase C zeta type (Homo sapiens) (UniProt Q05513); settings: at 10 µM
[18] = target: Serine/threonine-protein kinase PLK2 (Homo sapiens) (UniProt Q9NYY3); settings: at 1 µM;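 note: residual PLK2 kinase activity expressed as percent of uninhibited control, measured in MOPS buffer at pH 7.0 with EDTA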
[19] = target: cAMP-dependent protein kinase catalytic subunit alpha (Homo sapiens) (UniProt P17612); settings: at 10 µM

`CC[n+]1c(/C=C/N(C)c2ccccc2)n(-c2ccccc2)c2ccc(-c3nc4ccccc4s3)cc21` was tested, and the residual activity [1] was 108% and the residual activity [2] was 115%.
`NC(=O)Nc1sc(-c2ccc(F)cc2)cc1C(N)=O` was tested, and the residual activity [3] was 77% and the residual activity [4] was 38%.
`CC#CC(=O)Nc1cc2c(Nc3ccc(F)c(Cl)c3)ncnc2cn1` showed a residual activity [5] of 102% and a residual activity [6] of 92%.
With `Oc1n[nH]c2nnc(-c3c(-c4ccccc4)nn4ccccc34)cc12` the residual activity [7] was 61% and the residual activity [8] was 110%.
For `O=C(Nc1nc2ccccc2n1CCN1CCOCC1)c1cccc([N+](=O)[O-])c1`, the residual activity [9] was 102%.
Work on `Cc1nc(-c2ccccc2)c(-c2ccncc2)o1` yielded a residual activity [10] of 96%, a residual activity [11] of 85% and a residual activity [12] of 116%. It also gave a residual activity [13] of 107%.
Work on `COc1cc2ncnc(Nc3ccc(O)c(Br)c3)c2cc1OC` yielded a residual activity [14] of 110% and a residual activity [15] of 96%.
Compound `COc1ccc(S(=O)(=O)N(CCO)c2ccccc2CN(C)C/C=C/c2ccc(Cl)cc2)cc1` has a residual activity [16] of 89%, a residual activity [17] of 105% and a residual activity [18] of 110%. The residual activity [19] was 118%.
